{
  "sequences": {"note": "Amino acid sequences for entries named in this document (tags omitted). Residues count along the entry.", "UniProt Q13451, 42-130 limits assumed": "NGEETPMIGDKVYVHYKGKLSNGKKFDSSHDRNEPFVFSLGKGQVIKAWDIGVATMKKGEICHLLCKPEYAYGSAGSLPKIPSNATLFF"},
  "source": "patent US9914732B2",
  "about": "“Diazabicyclo[4.3.1]decane derivatives for treatment of psychiatric disorders” (Max-Planck-Gesellschaft zur Forderung der Wissenschaften …, priority 2014, dated 2018)",
  "key": {"FKBP51": {"target": "FKBP51 (Homo sapiens, UniProt Q13451)", "assay": "Fluorescence polarization (FP) assay, binding to the FK506-binding domain of FKBP51", "conditions": "read-out: FKBP51 Ki; FK506-binding domain of FKBP51 (FKBP51FK1), competition with fluorescent ligand 2b", "method": "(§1) In the present invention, in vitro fluorescence polarization assays with the compounds of the general formula (I) were performed to determine the binding affinities to FKBP51 and FKBP52 or to the isolated FK506-binding domains of FKBP51 and FKBP52 ([…]). Binding to the isolated FK506-binding domains is reliably indicative of binding to the full length proteins. The affinities for the isolated FK506-binding domains and for full-length FKBP51 or FKBP52 are the same for all compounds tested so far (Kozany et al, ChemBioChem 2009, 10, 1402-1410).\n(§2) Example 11: Fluorescence Polarization (FP) Assays\n(§3) In-vitro fluorescence polarization assays were performed to determine the binding affinities for FKBP51 and 52 according to a literature procedure (Kozany, C.; Marz, A.; Kress, C.; Hausch, F., Fluorescent probes to characterise FK506-binding proteins. Chembiochem 2009, 10, (8), 1402-10).\n(§4) For fluorescence polarization assays the fluorescent ligand 2b was dissolved in HEPES (20 mm, pH 8), Triton-X100 (0.01%), at double the concentration required for the final sample. […]\n(§5) The samples were transferred to black 384-well assay plates (No.: 3575; Corning Life Sciences). After incubation at room temperature for 30 min the fluorescence anisotropy was measured (GENios Pro, Tecan, Männedorf, Switzerland) by using an excitation filters of 485/20 nm and emission filters of 535/25 nm. […]"}, "FKBP52": {"target": "FKBP52 (Homo sapiens, UniProt Q02790)", "assay": "Fluorescence polarization (FP) assay, binding to the FK506-binding domain of FKBP52", "conditions": "read-out: FKBP52 Ki; FK506-binding domain of FKBP52 (FKBP52FK1), competition with fluorescent ligand 2b", "method": "as §1, §2, §3, §4, §5"}},
  "data": [
    {"molecule": "COCCN1C[C@H](CC(C)O)[C@H]2CCC[C@@H](C1=O)N2S(=O)(=O)c1cc(Cl)cc(Cl)c1", "note": "(some centres unmarked)", "values": [
      {"measurement": "Ki", "setting": "FKBP51", "result": "100 to 500", "unit": "nM"},
      {"measurement": "Ki", "setting": "FKBP52", "result": "< 100", "unit": "nM"}
    ]}
  ]
}
